The entries are a selection whose mix differs from that of the whole data set. Records with an inconclusive call do not appear. Where a call stands in place of a potency, no number is given. Active and inactive are the calls of the source. The call rests on the fitted dose curve; in most records, active means well fitted inhibition curve with a large enough effect; inconclusive means small, poorly fitted or top-dose-only effect; inactive means no such curve, though single readings can be large or run the other way.
Potency means the concentration at half of the fitted maximal effect.

Amino acid sequences for entries named in this document (tags omitted).
UniProt P49798, whole entry: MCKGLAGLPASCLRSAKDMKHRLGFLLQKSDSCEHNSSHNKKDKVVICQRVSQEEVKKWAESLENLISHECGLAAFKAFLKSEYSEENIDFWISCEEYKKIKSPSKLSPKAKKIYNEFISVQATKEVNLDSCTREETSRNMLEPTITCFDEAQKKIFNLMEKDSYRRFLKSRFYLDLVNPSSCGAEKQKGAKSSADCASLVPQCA

In this assay the target is Regulator of G-protein signaling 4 (Homo sapiens) (UniProt P49798). The assay can be described thus: Inhibitors of Regulator of G Protein Signaling (RGS) 4: qHTS. Further: nearly all actives have a fitted effect of over 75% in size. The settings on record: Transcreener GDP fluorescence polarization, RGS4-accelerated GTP hydrolysis; series mostly up to 114 µM. From the text:
G-protein-coupled receptors (GPCRs) are well-established targets for drug discovery and development. Members of the "regulator of G-protein signaling" (RGS)-protein superfamily have recently emerged as critical modulators of specific GPCR signaling pathways. […] Combining specific RGS domain inhibitors with existing GPCR agonists should potentiate cellular responses and could also increase the specificity of action of existing therapeutics. Small molecule modulators of RGS domain activity should also have clinical utility in inhibiting or potentiating the actions of endogenous GPCR agonists. In particular, the diversity of RGS proteins with highly localized and dynamically regulated distributions in the human brain makes this family of proteins attractive targets for pharmacotherapy of central nervous system (CNS) disorders such as Parkinson's disease, schizophrenia, and anxiety.
This assay was used to screen the NIH Molecular Libraries Small Molecule Repository (MLSMR) in order to identify a small molecule that inhibits RGS4.
NIH Chemical Genomics Center [NCGC]
NIH Molecular Libraries Probe Centers Network [MLPCN]
Assay Submitter (PI): David Siderovski, University of North Carolina Chapel Hill (School of Medicine)
Two microliters of 500nM (2x working concentration) is dispensed into black medium-binding solid-bottom Kalypsys plates. Then with the Kalypsys pintool 23nl of control and compounds are transferred; the control compound is […] CCG-4986 (working concentration). After a 10 minute incubation at room temperature 2ul of antibody is added with the Kalypsys dispenser; (-)RGS4/Transcreener GDP solution in columns 3 and 4 which consisted of 10nM (2x working concentration) Alexa633, 20uM GTP, and 20 ug/ml GDP antibody and (+)RGS4/Transcreener GDP solution in columns 1,2, and 5 to 48 which consists of 900nM RGS4 (2x working concentration), 10nM Alexa633, 20 ug/ml GDP antibody. The plate is centrifuged at 1000 RPM for 15 seconds to remove any possible bubbles and then incubated for 5 minutes at ambient room temperature. An initial fluorescent polarization read (620 nm/688 nm) is performed on the Envision before the plate is incubated for 90 minutes at 30 deg C at a relative humidity of 80%. The plate is once more centrifuged at 1000 RPM for 15 seconds and another Envision fluorescent polarization (620 nm/688 nm) read is carried out.
(qHTS replaces the single test concentration by a dilution series.)
`O=[N+]([O-])c1cc([N+](=O)[O-])c(-c2cnn(-c3ccccc3)c2)c([N+](=O)[O-])c1`: the activity change, negative = inhibition result was “inactive”.
Same read-out and setting: the entry for `O=[N+]([O-])c1cc([N+](=O)[O-])c(-n2nnc3ccccc32)c([N+](=O)[O-])c1` is “inactive”.
Consider `CN1CCCCC1COC(=O)C1(O)c2ccccc2CCc2ccccc21` (centres undefined), for which the activity change, negative = inhibition result is “inactive”.
With `COc1ccccc1OP(C)(=O)Nc1c(C)cccc1C` (centres undefined), the activity change, negative = inhibition entry is “inactive”.
The same measure, in the same setting: then `CP(=O)(Nc1ccc(SC(F)(F)F)cc1)Oc1ccccc1` (centres undefined), with “inactive”; and `CCCOc1ccc(NP(C)(=O)Oc2ccc(Cl)cc2)cc1` (centres undefined), with “inactive”; and `O=[N+]([O-])c1cc([N+](=O)[O-])c(Nc2nnnn2CCO)c([N+](=O)[O-])c1`, with “inactive”.
The same measure, in the same setting: the entry for `CC1=C2N=C(C=C3N=C(C(C)=C4[N-][C@@](C)([C@@H]5N=C1[C@](C)(CCC(=O)NC[C@@H](C)OP(=O)([O-])O[C@H]1[C@@H](O)[C@@H](n6cnc7cc(C)c(C)cc76)O[C@@H]1CO)[C@H]5CC(N)=O)[C@@](C)(CC(N)=O)[C@@H]4CCC(N)=O)[C@@](C)(CC(N)=O)[C@@H]3CCC(N)=O)C(C)(C)[C@@H]2CCC(N)=O.[C-]#N.[Co+3]` is “inactive”.
For `CC1=NCCc2c1[nH]c1ccccc21.O=[N+]([O-])c1cc([N+](=O)[O-])c(O)c([N+](=O)[O-])c1`, the activity change, negative = inhibition entry was “inactive”.
Take `Cc1cc(C)cc(OP(C)(=O)Nc2ccccn2)c1` (centres undefined): the activity change, negative = inhibition entry was “inactive”.
Regarding `Cc1ccc(C)c(NP(C)(=O)Oc2ccccc2)c1` (centres undefined), the activity change, negative = inhibition result was “inactive”.
With `COc1ccccc1OP(C)(=O)Nc1cccc(Br)c1` (centres undefined), the activity change, negative = inhibition was inactive: -7.87% [at 11.4 µM].
For the molecule `Cc1cc(C)cc(OP(C)(=O)Nc2ccc(C)cc2C)c1` (centres undefined), the activity change, negative = inhibition result was “inactive”.
As for `CCOC(=O)c1ccc(NP(C)(=O)Oc2cc(C)cc(C)c2)cc1` (centres undefined), the activity change, negative = inhibition result was “inactive”.
In the case of `CCN(CC)CCCOC(=O)C(O)(c1ccccc1)c1ccccc1`, the activity change, negative = inhibition result was “inactive”.
Same read-out and setting: then `CCOC(=O)c1ccc(NP(C)(=O)Oc2ccccc2)cc1` (centres undefined), with “inactive”; and `Cc1ccc(NP(C)(=O)Oc2ccccc2)c(C)c1` (centres undefined), with “inactive”; and `COc1ccccc1OP(C)(=O)Nc1ccc(C)cc1` (centres undefined), with “inactive”.
On the same count and under the same terms, then `COc1ccc(OP(C)(=O)Nc2cccc(F)c2)cc1` (centres undefined), with inactive: -4.83% [at 11.4 µM]; and `COc1ccccc1OP(C)(=O)Nc1cc(Cl)ccc1C` (centres undefined), with “inactive”; and `Cc1cc(C)cc(OP(C)(N)=O)c1` (centres undefined), with “inactive”.
Same read-out and setting: the entry for `O=[N+]([O-])c1cc([N+](=O)[O-])c(Nc2cccnc2)c([N+](=O)[O-])c1` is “inactive”; for `Cc1cccc(C)c1OP(C)(N)=O` (centres undefined) it is “inactive”.
As for `CC(C)(C)c1ccc(OP(C)(=O)Nc2ccc(SC(F)(F)F)cc2)cc1` (centres undefined), the activity change, negative = inhibition result is “inactive”.
As for `O=[N+]([O-])c1ccc2c(c1)C=Nc1ccccc1O2`, the activity change, negative = inhibition entry is “inactive”.
On the same count and under the same terms, then `COc1ccccc1OP(C)(=O)Nc1ccccc1` (centres undefined), with “inactive”; and `CP(=O)(Nc1ccccc1Br)Oc1ccccc1` (centres undefined), with “inactive”; and `CCOP(C)(=S)SCC(=O)NC(C)C(=O)O` (centres undefined), with “inactive”.
In the case of `O=[N+]([O-])c1cc([N+](=O)[O-])c(O)c([N+](=O)[O-])c1.c1ccc(Oc2ccncc2)cc1`, the activity change, negative = inhibition result is “inactive”.
Still for that read-out and setting: the entry for `CCOC(=O)c1ccc(NP(C)(=O)Oc2ccc(OC)cc2)cc1` (centres undefined) is “inactive”; for `CP(=O)(Nc1ccccn1)Oc1ccc(Cl)cc1` (centres undefined) it is “inactive”.
The same measure, in the same setting: the entry for `CP(=O)(Oc1ccccc1)OC(c1ccccc1)C(F)(F)F` (centres undefined) is “inactive”.
On the same count and under the same terms, the entry for `CP(=O)(Nc1ccc(SC(F)(F)F)cc1)Oc1ccc(Cl)cc1` (centres undefined) is “inactive”; for `Cc1cccc(C)c1OP(C)(=O)Nc1ccc(SC(F)(F)F)cc1` (centres undefined) it is “inactive”; for `Cc1cc(C)cc(OP(C)(=O)Nc2ccc(SC(F)(F)F)cc2)c1` (centres undefined) it is “inactive”.
Take `CCc1ccc(OP(C)(=O)N2CCN(c3ccc([N+](=O)[O-])cc3)CC2)cc1` (centres undefined): the activity change, negative = inhibition result was “inactive”.
The same measure, in the same setting: the entry for `CP(=O)(NC(=O)Nc1ccccc1)Oc1ccccc1` (centres undefined) is “inactive”; for `CP(=O)(Nc1ccc(Cl)cc1)Oc1ccc(F)cc1` (centres undefined) it is “inactive”; for `CC(C)(C)c1ccc(OP(C)(=O)O)cc1` it is “inactive”.
As to `COc1ccccc1OP(C)(=O)Nc1ccccc1Br` (centres undefined), the activity change, negative = inhibition result was “inactive”.
On the same count and under the same terms, the entry for `CN(C)C(=O)c1c([N+](=O)[O-])cc([N+](=O)[O-])cc1[N+](=O)[O-]` is “inactive”.
For `N#[O+].[C-]#N.[C-]#N.[C-]#N.[C-]#N.[C-]#N.[Fe+2].[Na+].[Na+]`, the Potency is active: 18.9 µM.
`COc1ccc(OP(C)(=O)Nc2ccc(Br)cc2)cc1` (centres undefined): the activity change, negative = inhibition result was “inactive”.
Take `CCN(CC)CC(O)COC(=O)C(O)(c1ccccc1)C1CCCCC1` (centres undefined): the activity change, negative = inhibition result is “inactive”.
The same measure, in the same setting: the entry for `CCc1ccc(OP(C)(=O)Nc2cccnc2)cc1` (centres undefined) is “inactive”; for `CP(=O)(Oc1ccccc1)N1CCOC1=O` (centres undefined) it is “inactive”.
On the same count and under the same terms, then `O=C(OCCCN1CCCC1)C(O)(c1ccccc1)C1CCCCC1` (centres undefined), with “inactive”; and `COc1ccccc1OP(C)(=O)Nc1c(C)n(C)n(-c2ccccc2)c1=O` (centres undefined), with “inactive”; and `Nc1ccc2c(ccc3cccnc32)n1.O=[N+]([O-])c1cc([N+](=O)[O-])c(O)c([N+](=O)[O-])c1`, with “inactive”.
In the case of `CP(=O)(OC12CC3CC(CC(C3)C1)C2)OC12CC3CC(CC(C3)C1)C2`, the activity change, negative = inhibition result is “inactive”.
As for `CCOC(=O)c1ccc(NP(C)(=O)Oc2ccc(Cl)cc2)cc1` (centres undefined), the activity change, negative = inhibition entry is “inactive”.
The same measure, in the same setting: then `CP(=O)(OCCOc1ccccc1)OCCOc1ccccc1`, with “inactive”; and `CP(=O)(Nc1ccc(Cl)cc1Cl)Oc1ccccc1` (centres undefined), with “inactive”; and `CCCCCCCCCCCCCCCC1C[N+](C)(C)CCOP(C)(=O)O1` (centres undefined), with “inactive”.
On the same count and under the same terms, the entry for `Cc1cc(C)cc(OP(C)(=O)Nc2cccc(C(F)(F)F)c2)c1` (centres undefined) is “inactive”; for `COc1ccc(OP(C)(=O)Nc2ccccc2Br)cc1` (centres undefined) it is “inactive”; for `CN(C(=O)Cc1ccc(Cl)c(Cl)c1)[C@H]1CCCC[C@@H]1N1CCCC1` it is “inactive”.
As for `COc1ccccc1OP(C)(=O)Nc1ccc(C)c(C)c1` (centres undefined), the activity change, negative = inhibition entry was “inactive”.
The same measure, in the same setting: then `O=[N+]([O-])c1cc([N+](=O)[O-])c(Nc2ccccn2)c([N+](=O)[O-])c1`, with “inactive”.
Same read-out and setting: then `Cc1c(NP(C)(=O)Oc2ccc(C(C)C)cc2)c(=O)n(-c2ccccc2)n1C` (centres undefined), with “inactive”; and `CCc1ccc(OP(C)(=O)O)cc1`, with “inactive”; and `COc1ccccc1OP(C)(=O)Nc1ccc(C)cc1C` (centres undefined), with “inactive”.
Same read-out and setting: then `CP(=O)(Nc1ccccn1)Oc1ccccc1` (centres undefined), with “inactive”; and `COc1ccccc1OP(C)(=O)Nc1ccc(Br)cc1` (centres undefined), with “inactive”.
On to `CN(C)CCOC(=O)C(O)(c1ccccc1)C1CCCC1` (centres undefined), for which the activity change, negative = inhibition entry was “inactive”.
Same read-out and setting: then `COc1ccc(OP(C)(=O)Nc2ccccn2)cc1` (centres undefined), with “inactive”; and `O=C(OCCN1CCN(CCOCc2ccccc2)CC1)C(O)(c1ccccc1)c1ccccc1`, with “inactive”.
On the same count and under the same terms, then `CC(C)c1ccc(OP(C)(=O)Nc2ccc(SC(F)(F)F)cc2)cc1` (centres undefined), with “inactive”; and `CP(=O)(Nc1ccccc1F)Oc1ccccc1` (centres undefined), with “inactive”; and `CCN(CC)CCCOC(=O)C(O)(c1ccccc1)C1CCCCC1` (centres undefined), with “inactive”.
Still for that read-out and setting: then `Cc1c([N+](=O)[O-])cc([N+](=O)[O-])c(Br)c1[N+](=O)[O-]`, with “inactive”; and `CCCCCOc1ccc(NP(C)(=O)Oc2ccc(Cl)cc2Cl)cc1` (centres undefined), with “inactive”; and `CP(=O)(Nc1ccccc1)Oc1ccc(F)cc1` (centres undefined), with “inactive”.
As for `COc1ccc(OP(C)(=O)Nc2ccc(SC(F)(F)F)cc2)cc1` (centres undefined), the activity change, negative = inhibition result was “inactive”.
On to `CCOC(=O)c1ccc(NP(C)(=O)Oc2ccc(F)cc2)cc1` (centres undefined), for which the activity change, negative = inhibition entry is “inactive”.
For the molecule `Cc1cc(-c2cccc3ccccc23)c(C)cn1.O=[N+]([O-])c1cc([N+](=O)[O-])c(O)c([N+](=O)[O-])c1`, the activity change, negative = inhibition result was “inactive”.
On the same count and under the same terms, the entry for `O=[N+]([O-])c1ccc(OP2(=O)COCCO2)cc1` (centres undefined) is “inactive”; for `Cc1c(C(c2ccc3c(c2)OCO3)c2c(C)n(C)n(-c3ccccc3)c2=O)c(=O)n(-c2ccccc2)n1C.O=[N+]([O-])c1cc([N+](=O)[O-])c(O)c([N+](=O)[O-])c1` it is “inactive”.
Same read-out and setting: the entry for `COc1ccc(OP(C)(=O)Nc2cccc(Br)c2)cc1` (centres undefined) is “inactive”; for `CN(C)CCOC(=O)C(O)(c1ccccc1)C1CCCCC1` (centres undefined) it is “inactive”.
The same measure, in the same setting: the entry for `CP(=O)(Nc1ccc2c(c1)OCCO2)Oc1ccccc1` (centres undefined) is “inactive”; for `Cc1ccccc1NP(C)(=O)Nc1ccccc1C` it is “inactive”.
For `CP(=O)(Nc1ccc(SC(F)(F)F)cc1)Oc1ccc(F)cc1` (centres undefined), the activity change, negative = inhibition result was “inactive”.
For the molecule `CCOP(C)(=S)SCC(=O)NC(C)(CC)C(=O)O` (centres undefined), the activity change, negative = inhibition result was “inactive”.

The values above are taken from PubChem BioAssay AID504845 (National Center for Advancing Translational Sciences (NCATS), 2011).
